Reference: patent publication US12447153B2, “HER2 mutation inhibitors” (Array BioPharma Inc., priority 2021, dated 2025)

Amino acid sequences for entries named in this document (tags omitted). Chains listed by the source or under a name are the forms on record and can include a tag or linker.
UniProt P04626, with tags, fused parts or gaps INS775YVMA/P1170A limits assumed: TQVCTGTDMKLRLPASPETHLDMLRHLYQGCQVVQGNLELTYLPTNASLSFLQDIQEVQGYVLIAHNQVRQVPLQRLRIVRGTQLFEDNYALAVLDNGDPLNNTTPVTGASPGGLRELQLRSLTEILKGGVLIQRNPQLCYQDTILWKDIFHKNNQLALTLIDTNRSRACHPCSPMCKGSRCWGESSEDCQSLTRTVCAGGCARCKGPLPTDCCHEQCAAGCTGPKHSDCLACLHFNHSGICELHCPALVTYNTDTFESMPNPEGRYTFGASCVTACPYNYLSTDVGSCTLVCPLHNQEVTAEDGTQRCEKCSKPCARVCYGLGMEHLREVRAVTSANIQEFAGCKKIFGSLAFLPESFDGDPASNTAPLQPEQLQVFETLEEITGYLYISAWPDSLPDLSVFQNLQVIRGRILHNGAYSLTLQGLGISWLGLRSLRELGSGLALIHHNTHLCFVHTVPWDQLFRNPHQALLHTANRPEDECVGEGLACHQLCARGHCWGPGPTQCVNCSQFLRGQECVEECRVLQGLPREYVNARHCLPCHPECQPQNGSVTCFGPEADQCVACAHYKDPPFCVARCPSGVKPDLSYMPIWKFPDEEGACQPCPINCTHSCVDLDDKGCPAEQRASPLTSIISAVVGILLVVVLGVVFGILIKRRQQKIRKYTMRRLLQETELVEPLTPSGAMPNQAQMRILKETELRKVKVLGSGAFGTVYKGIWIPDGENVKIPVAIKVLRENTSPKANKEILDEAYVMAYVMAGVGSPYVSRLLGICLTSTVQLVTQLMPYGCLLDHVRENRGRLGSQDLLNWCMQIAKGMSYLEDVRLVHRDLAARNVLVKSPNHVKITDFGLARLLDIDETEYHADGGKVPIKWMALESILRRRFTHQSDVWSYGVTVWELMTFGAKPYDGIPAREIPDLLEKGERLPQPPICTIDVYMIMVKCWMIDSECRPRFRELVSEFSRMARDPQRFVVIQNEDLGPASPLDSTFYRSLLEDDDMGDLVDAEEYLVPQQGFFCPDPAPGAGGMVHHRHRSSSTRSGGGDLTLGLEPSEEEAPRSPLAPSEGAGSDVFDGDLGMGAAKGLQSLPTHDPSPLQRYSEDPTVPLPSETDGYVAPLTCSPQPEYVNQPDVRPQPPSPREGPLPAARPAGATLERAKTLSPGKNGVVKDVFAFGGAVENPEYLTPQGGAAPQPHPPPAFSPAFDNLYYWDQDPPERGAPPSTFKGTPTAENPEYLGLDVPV

Molecular target: ErbB2 insYVMA (HER2-YVMA) (Homo sapiens, UniProt P04626, INS775YVMA/P1170A)

C=CC(=O)N1[C@@H]2CC[C@H]1C[C@@H](c1ccc3ncnc(Nc4ccc(Oc5cnc6c(c5)ncn6C)c(C)c4F)c3n1)C2 [Example 227, 1-((1R,3r,5S)-3-(4-((2-fluoro-3-methyl-4-((3-methyl-3H-imidazo[4,5-b]pyridin-6-yl)oxy)phenyl)amino)pyrido[3,2-d]pyrimidin-6-yl)-8-azabicyclo[3.2.1]octan-8-yl)prop-2-en-1-one] was tested, and the IC50 was 25.4 nM.
